Experimental data taken from ChEMBL document CHEMBL5291721, “A preclinical secondary pharmacology resource illuminates target-adverse drug reaction associations of marketed drugs” (Nat Commun, 2023).

Amino acid sequences for entries named in this document (tags omitted). A change or cut given only in a name is not applied to a line headed by its entry.
UniProt P11229: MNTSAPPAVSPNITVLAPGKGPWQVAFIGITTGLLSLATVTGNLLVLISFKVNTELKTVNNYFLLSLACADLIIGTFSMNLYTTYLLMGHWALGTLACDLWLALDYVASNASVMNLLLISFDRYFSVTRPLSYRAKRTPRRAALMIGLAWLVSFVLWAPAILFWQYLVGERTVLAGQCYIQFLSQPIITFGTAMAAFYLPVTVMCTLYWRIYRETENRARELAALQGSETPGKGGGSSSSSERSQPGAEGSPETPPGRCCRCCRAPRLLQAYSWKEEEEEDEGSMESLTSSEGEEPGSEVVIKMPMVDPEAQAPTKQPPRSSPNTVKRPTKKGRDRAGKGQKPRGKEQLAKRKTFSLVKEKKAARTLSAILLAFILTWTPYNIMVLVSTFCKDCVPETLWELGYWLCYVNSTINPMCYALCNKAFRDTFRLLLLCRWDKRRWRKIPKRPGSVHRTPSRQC
UniProt P21397, whole entry: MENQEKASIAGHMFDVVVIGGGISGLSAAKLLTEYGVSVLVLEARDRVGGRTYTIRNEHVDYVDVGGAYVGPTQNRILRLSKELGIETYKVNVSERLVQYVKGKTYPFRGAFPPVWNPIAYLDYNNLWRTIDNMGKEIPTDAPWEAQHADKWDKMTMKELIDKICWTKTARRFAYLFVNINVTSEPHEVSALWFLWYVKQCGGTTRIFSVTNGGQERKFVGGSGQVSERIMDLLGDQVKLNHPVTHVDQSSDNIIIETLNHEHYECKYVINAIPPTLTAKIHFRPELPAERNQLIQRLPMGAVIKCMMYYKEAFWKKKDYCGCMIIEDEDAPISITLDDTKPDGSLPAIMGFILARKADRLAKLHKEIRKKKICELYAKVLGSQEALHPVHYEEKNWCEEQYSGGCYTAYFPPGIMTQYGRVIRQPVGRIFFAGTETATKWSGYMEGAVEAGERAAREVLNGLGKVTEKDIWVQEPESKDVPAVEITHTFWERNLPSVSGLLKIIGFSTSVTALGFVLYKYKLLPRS
UniProt P23219, whole entry: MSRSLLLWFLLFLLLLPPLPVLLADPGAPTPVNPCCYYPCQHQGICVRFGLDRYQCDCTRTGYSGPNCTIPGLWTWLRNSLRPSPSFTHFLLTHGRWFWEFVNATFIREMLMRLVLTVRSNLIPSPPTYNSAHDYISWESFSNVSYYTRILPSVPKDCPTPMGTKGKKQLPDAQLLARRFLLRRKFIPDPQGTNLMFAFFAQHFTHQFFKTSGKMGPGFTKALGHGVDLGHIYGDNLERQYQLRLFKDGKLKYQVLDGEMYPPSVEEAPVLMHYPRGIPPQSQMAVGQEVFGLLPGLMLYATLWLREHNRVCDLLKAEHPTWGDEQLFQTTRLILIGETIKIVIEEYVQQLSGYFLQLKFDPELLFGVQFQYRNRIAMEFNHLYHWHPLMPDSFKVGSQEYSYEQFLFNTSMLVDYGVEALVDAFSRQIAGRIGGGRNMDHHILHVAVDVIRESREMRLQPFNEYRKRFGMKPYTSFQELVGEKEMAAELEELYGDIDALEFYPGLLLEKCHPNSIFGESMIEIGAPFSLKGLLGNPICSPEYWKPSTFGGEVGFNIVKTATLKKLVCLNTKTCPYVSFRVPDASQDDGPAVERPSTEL
UniProt Q12809: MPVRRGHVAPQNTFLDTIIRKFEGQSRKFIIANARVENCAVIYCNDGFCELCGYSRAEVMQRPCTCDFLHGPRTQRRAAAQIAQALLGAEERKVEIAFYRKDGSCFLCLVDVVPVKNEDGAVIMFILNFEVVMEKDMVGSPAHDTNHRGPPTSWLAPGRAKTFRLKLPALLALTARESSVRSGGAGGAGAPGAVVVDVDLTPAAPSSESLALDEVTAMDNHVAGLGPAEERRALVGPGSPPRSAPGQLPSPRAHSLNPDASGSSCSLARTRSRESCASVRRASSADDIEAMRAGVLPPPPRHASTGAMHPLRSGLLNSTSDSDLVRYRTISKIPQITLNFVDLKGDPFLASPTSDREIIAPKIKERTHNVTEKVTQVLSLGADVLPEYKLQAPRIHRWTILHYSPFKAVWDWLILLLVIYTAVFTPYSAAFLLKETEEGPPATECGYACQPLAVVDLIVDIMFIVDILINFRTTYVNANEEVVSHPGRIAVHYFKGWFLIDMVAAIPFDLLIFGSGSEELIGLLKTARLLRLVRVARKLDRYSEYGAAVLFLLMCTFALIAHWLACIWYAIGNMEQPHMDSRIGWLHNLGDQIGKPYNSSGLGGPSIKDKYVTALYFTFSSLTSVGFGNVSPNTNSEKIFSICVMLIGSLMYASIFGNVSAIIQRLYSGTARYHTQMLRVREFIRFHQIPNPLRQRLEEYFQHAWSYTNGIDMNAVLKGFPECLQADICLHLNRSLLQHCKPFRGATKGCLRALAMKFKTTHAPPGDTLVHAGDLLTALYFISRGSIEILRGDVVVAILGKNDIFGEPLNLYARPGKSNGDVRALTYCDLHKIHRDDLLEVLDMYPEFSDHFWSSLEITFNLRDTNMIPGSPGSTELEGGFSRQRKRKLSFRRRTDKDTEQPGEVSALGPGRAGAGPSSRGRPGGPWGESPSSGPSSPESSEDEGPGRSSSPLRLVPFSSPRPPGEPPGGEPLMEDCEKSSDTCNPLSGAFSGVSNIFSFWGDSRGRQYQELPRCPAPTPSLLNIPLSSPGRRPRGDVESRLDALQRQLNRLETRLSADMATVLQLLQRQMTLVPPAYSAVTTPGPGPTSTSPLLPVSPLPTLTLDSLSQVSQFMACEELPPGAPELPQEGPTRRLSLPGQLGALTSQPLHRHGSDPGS
UniProt Q14524, whole entry: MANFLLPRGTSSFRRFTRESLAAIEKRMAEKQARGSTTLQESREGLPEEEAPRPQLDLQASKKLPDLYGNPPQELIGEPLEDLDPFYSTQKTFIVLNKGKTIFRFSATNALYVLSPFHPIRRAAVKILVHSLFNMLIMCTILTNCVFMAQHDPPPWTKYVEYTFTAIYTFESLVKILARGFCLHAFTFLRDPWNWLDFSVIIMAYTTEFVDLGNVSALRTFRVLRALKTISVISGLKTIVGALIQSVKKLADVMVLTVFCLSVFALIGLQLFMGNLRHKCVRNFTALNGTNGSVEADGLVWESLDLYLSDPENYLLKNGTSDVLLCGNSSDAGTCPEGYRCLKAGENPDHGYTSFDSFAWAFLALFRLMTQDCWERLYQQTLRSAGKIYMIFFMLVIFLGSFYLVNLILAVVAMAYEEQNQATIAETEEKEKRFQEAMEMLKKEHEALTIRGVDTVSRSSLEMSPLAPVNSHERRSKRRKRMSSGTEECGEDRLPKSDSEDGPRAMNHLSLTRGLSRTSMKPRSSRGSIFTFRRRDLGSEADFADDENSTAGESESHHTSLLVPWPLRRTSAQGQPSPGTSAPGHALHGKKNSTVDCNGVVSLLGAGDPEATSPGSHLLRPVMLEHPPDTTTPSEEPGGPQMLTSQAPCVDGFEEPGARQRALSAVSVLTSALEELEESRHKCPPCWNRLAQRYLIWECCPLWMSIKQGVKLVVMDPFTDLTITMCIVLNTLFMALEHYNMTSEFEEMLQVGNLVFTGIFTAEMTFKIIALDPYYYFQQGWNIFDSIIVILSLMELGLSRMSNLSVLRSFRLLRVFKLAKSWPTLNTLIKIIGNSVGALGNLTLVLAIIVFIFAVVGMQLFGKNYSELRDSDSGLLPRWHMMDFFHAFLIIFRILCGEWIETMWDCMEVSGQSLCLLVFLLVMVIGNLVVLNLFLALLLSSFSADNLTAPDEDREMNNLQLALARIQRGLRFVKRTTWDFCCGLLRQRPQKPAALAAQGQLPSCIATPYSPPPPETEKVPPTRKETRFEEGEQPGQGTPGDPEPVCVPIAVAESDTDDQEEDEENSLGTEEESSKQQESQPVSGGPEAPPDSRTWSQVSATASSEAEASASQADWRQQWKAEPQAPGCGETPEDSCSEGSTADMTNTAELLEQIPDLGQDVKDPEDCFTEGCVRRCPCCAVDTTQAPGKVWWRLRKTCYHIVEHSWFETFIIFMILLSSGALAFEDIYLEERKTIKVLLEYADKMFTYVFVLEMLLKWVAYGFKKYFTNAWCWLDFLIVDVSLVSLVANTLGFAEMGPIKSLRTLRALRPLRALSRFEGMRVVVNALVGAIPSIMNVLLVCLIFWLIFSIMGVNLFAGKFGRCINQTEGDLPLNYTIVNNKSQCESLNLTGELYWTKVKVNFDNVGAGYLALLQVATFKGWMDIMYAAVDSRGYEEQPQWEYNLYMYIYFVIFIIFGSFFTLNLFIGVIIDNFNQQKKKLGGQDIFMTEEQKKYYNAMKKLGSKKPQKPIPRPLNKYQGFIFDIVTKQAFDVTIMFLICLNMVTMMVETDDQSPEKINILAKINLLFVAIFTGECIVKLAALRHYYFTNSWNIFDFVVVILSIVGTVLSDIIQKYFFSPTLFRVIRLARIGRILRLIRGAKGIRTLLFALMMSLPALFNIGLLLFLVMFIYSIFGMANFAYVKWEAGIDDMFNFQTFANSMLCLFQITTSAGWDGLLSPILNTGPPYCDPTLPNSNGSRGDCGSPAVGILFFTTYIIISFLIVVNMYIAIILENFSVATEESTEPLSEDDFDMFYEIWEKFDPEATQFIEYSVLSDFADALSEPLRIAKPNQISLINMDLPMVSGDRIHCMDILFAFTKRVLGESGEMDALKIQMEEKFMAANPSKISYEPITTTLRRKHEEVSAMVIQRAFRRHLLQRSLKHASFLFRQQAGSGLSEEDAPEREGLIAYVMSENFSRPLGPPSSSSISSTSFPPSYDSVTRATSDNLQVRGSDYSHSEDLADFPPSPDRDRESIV
UniProt P22303: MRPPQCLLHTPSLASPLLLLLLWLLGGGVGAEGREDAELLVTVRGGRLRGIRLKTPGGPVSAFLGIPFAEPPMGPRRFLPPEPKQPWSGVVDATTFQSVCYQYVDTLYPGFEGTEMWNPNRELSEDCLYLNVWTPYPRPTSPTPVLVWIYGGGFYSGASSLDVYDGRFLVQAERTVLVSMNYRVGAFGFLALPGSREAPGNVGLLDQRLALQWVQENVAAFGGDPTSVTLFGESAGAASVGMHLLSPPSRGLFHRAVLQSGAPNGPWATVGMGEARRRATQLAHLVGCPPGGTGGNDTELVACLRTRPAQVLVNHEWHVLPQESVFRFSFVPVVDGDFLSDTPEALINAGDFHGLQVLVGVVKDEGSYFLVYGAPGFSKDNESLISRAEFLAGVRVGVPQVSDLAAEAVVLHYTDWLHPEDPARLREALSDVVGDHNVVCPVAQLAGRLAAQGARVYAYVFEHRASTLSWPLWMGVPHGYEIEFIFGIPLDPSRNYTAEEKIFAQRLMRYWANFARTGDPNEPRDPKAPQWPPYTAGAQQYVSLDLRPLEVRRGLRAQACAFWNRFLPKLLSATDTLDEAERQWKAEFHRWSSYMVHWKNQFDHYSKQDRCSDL
UniProt P08908, whole entry: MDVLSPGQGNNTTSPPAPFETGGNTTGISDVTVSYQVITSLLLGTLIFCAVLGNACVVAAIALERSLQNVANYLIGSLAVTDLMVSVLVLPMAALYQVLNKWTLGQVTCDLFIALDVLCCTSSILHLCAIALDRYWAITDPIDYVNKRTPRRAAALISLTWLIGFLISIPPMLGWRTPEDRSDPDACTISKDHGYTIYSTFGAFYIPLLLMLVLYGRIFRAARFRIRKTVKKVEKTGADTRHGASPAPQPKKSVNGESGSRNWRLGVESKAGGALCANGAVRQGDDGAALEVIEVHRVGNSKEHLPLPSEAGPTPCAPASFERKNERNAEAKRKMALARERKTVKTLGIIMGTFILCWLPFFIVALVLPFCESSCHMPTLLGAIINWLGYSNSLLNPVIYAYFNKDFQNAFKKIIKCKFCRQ
UniProt P28335: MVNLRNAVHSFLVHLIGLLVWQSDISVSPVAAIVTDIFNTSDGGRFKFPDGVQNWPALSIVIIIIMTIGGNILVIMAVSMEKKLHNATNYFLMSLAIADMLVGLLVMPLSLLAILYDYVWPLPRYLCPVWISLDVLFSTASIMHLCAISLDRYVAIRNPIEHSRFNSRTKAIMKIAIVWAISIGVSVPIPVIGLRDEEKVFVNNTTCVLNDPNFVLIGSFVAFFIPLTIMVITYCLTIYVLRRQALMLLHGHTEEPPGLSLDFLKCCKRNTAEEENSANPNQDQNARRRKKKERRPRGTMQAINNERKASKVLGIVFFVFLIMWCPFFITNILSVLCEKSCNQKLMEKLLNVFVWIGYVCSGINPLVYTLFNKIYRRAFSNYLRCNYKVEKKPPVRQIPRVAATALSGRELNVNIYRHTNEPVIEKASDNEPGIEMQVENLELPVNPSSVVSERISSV

Tests used:
[1] = biological target: Muscarinic acetylcholine receptor M1 (Homo sapiens, UniProt P11229); assay type: functional
[2] = biological target: Glutamate receptor ionotropic, NMDA 1 (Rattus norvegicus, UniProt P35439)
[3] = biological target: T1, Amine oxidase [flavin-containing] A (Homo sapiens, UniProt P21397); assay type: functional
[4] = biological target: T1, Amine oxidase [flavin-containing] A; assay type: functional; remark: listed apart in the source
[5] = biological target: Prostaglandin G/H synthase 1 (Homo sapiens, UniProt P23219); assay type: functional
[6] = biological target: Voltage-gated inwardly rectifying potassium channel KCNH2 (Homo sapiens, UniProt Q12809)
[7] = biological target: Sodium channel protein type 5 subunit alpha (Homo sapiens, UniProt Q14524); assay type: functional, cell-based
[8] = biological target: Acetylcholinesterase (Homo sapiens, UniProt P22303); assay type: functional
[9] = biological target: T2, 5-hydroxytryptamine receptor 1A (Homo sapiens, UniProt P08908)
[10] = biological target: T2, 5-hydroxytryptamine receptor 1A; remark: listed apart in the source
[11] = biological target: 5-hydroxytryptamine receptor 2C (Homo sapiens, UniProt P28335)
[12] = biological target: T2, 5-hydroxytryptamine receptor 1A; assay type: functional, cell-based
Further: assay procedure not described here.

C=CC[N@@+]12CC[C@@]34c5ccccc5N5/C=C6/[C@H]7C[C@H]8[C@@]9(CC[N@@+]8(CC=C)C/C7=C/CO)c7ccccc7N(/C=C(/[C@@H](C[C@@H]31)/C(=C\CO)C2)[C@H]54)[C@@H]69 [ALCURONIUM]
AC50 [1]: > 30 µM

CC12CC3CC(C)(C1)CC(N)(C3)C2 [MEMANTINE]
AC50 [2]: 3.94 µM

C#CCN(C)Cc1ccccc1 [PARGYLINE]
AC50 [3]: 3.11 µM
AC50 [4]: 5.8 µM

CN1C(C(=O)Nc2ccccn2)=C(O)c2ccccc2S1(=O)=O [PIROXICAM]
AC50 [5]: 22.4 µM

N[C@@H](CC(=O)N1CCn2c(nnc2C(F)(F)F)C1)Cc1cc(F)c(F)cc1F [SITAGLIPTIN]
AC50 [6]: > 30 µM

CCN(CC)CCNC(=O)c1c(C)[nH]c(/C=C2\C(=O)Nc3ccc(F)cc32)c1C [SUNITINIB]
AC50 [7]: 27 µM

COc1cc(C(=O)NCc2ccc(OCCN(C)C)cc2)cc(OC)c1OC [TRIMETHOBENZAMIDE]
AC50 [8]: 3.22 µM

COC(=O)[C@@H]1[C@H]2C[C@H]3c4[nH]c5ccccc5c4CCN3C[C@@H]2CC[C@@H]1O [YOHIMBINE]
AC50 [9]: 0.644 µM and 0.0661 µM
AC50 [10]: 0.0752 µM
AC50 [11]: > 30 µM
AC50 [12]: 0.24 µM

Values joined by “and” are separate entries in the source; they are usually repeats but may differ in a detail not shown here. Equal values may be shown once.
